The assay has as its system circulating immunoglobulins (IgG1, IgG2a, IgG2b, IgG3, IgA, IgM, kappa, lambda). Nature of the assay: Wild type mouse study: circulating immunoglobulin profile by ELISA. (ELISA stands for enzyme-linked immunosorbent assay.)

Experimental findings from patent US20210236512A1 (ZARODEX THERAPEUTICS LIMITED, priority 2018, published 2021) are described below.

For `CN1CCN(C2=Nc3cc(Cl)ccc3Nc3ccccc32)CC1` [Clozapine, clozapine], under “5 and 10 mg/kg IP, 21 days”, the “Circulating IgA levels compared to control” value is recorded as “reduction”. For the setting “under the experimental conditions used”, the “Other circulating immunoglobulin isotype classes” value was “No other isotype classes were affected”. `O=C(CCCN1CCC(O)(c2ccc(Cl)cc2)CC1)c1ccc(F)cc1` [Haloperidol, haloperidol]: the “Reduction in circulating IgA levels” value (haloperidol 1 mg/kg) is on record as “not observed”.
